Source: US8962608B2, “Cycloalkylnitrile pyrazole carboxamides as janus kinase inhibitors” (Merck Sharp & Dohme Corp., priority 2011, dated 2015)

The chains behind the UniProt entries cited, without tags or fusion partners. Residues count along the entry.
UniProt P23458, 875-1153: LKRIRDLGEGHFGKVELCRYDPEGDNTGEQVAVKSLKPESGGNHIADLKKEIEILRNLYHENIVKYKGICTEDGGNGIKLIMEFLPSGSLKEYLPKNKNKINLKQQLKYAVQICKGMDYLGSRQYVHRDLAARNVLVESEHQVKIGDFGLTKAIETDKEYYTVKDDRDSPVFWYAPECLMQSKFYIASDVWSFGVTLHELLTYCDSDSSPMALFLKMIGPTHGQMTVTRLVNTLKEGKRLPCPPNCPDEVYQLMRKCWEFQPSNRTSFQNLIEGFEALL
UniProt O60674, 849-1124: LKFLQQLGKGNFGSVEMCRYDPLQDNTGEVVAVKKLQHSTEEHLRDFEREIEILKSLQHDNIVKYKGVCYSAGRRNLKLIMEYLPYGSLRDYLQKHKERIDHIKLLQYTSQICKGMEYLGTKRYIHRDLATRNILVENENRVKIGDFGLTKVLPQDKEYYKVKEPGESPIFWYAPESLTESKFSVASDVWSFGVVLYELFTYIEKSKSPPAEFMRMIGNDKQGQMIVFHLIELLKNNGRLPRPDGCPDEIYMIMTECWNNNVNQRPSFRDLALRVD

molecular target: JAK1 (recombinant purified GST-tagged catalytic domain) (Homo sapiens (Human), UniProt P23458); assay: biochemical;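 further: biochemical assay with HTRF read-out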

Going from N#C[C@H]1CCCC[C@@H]1n1cc(C(N)=O)c(Nc2cccnc2)n1 (racemic) [Example 17-13, 1-[(1S,2S and 1R,2R)-2-cyanocyclohexyl]-3-(pyridin-3-ylamino)-1H-pyrazole-4-carboxamide] to N#C[C@H]1C[C@@H](N2CC3(CCC3)C2)CC[C@@H]1n1cc(C(N)=O)c(Nc2ccccc2)n1 (single isomer, unassigned) [Example 28-136, 1-[(1S,2S,4S or 1R,2R,4R)-4-(2-azaspiro[3.3]hept-2-yl)-2-cyanocyclohexyl]-3-(phenylamino)-1H-pyrazole-4-carboxamide], the IC50 falls from 10 nM to 1 nM (10-fold).

For CC(C)(C)OC(=O)N[C@@H]1CC[C@H](C#N)C(n2cc(C(N)=O)c(Nc3ccc(F)cc3)n2)C1 (single isomer, unassigned) [Example 44-2, tert-Butyl[(1R,3S,4S or 1S,3R,4R)-3-{4-carbamoyl-3-[(4-fluorophenyl)amino]-1H-pyrazol-1-yl}-4-cyanocyclohexyl]carbamate], the IC50 was 30 nM.

molecular target: JAK2 (recombinant purified GST-tagged catalytic domain) (Homo sapiens (Human), UniProt O60674); assay: biochemical;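 further: biochemical JAK kinase assay with HTRF detection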

Going from CC(C)(c1ccc(Nc2nn([C@H]3CC[C@](C)(O)C[C@@H]3C#N)cc2C(N)=O)cc1)C(O)C(F)(F)F (single isomer, unassigned) [Example 32-4, 1-[(1S,2S,4S or 1R,2R,4R)-2-cyano-4-hydroxy-4-methylcyclohexyl]-3-{[4-(3,3,3-trifluoro-(2R or 2S)-hydroxy-1,1-dimethylpropyl)phenyl]amino}-1H-pyrazole-4-carboxamide] to C[C@]1(O)CC[C@H](n2cc(C(N)=O)c(Nc3ccc([C@](C)(O)C(F)(F)F)cc3)n2)[C@@H](C#N)C1 (single isomer, unassigned) [Example 32-8, 1-[(1S,2S,4S or 1R,2R,4R)-2-cyano-4-hydroxy-4-methylcyclohexyl]-3-({4-[(1S or 1R)-2,2,2-trifluoro-1-hydroxy-1-methylethyl]phenyl}amino)-1H-pyrazole-4-carboxamide], the IC50 rises from 2 nM to 4 nM (2-fold). The first is the more potent here.

First: N#C[C@@H]1C[C@H](C(=O)N2CCC(F)(F)C2)CC[C@H]1n1cc(C(N)=O)c(Nc2ccc(Cl)cc2)n1 (single isomer, unassigned) [Example 35-32, 3-[(4-chlorophenyl)amino]-1-{(1R,2R,4R or 1S,2S,4S)-2-cyano-4-[(3,3-difluoropyrrolidin-1-yl)carbonyl]cyclohexyl}-1H-pyrazole-4-carboxamide]
Second: N#C[C@H]1C[C@@H](NCC(F)(F)F)CC[C@@H]1n1cc(C(N)=O)c(Nc2ccc(Cl)cc2)n1 (single isomer, unassigned) [Example 28-224, 3-[(4-chlorophenyl)amino]-1-{(1S,2S,4S or 1R,2R,4R)-2-cyano-4-[(2,2,2-trifluoroethyl)amino]cyclo-hexyl}-1H-pyrazole-4-carboxamide]
The IC50 of the first is 1.8-fold higher: 60 nM for the first, 34 nM for the second. The second is the more potent here.

Going from N#C[C@H]1C[C@@H](N2CC3(CCC3)C2)CC[C@@H]1n1cc(C(N)=O)c(Nc2ccc(C(F)(F)F)cc2)n1 (single isomer, unassigned) [Example 28-17, 1-[(1S,2S,4S or 1R,2R,4R)-4-(2-azaspiro[3.3]hept-2-yl)-2-cyanocyclohexyl]-3-{[4-(trifluoromethyl)phenyl]amino}-1H-pyrazole-4-carboxamide] to N#C[C@H]1CC(NC2COC2)CC[C@@H]1n1cc(C(N)=O)c(Nc2ccc(S(=O)(=O)C(F)(F)F)cc2)n1 (single isomer, unassigned) [Example 28-155, 1-[(1S,2S or 1R,2R)-2-cyano-4-(oxetan-3-ylamino)cyclohexyl]-3-({4-[(trifluoromethyl)sulfonyl]phen-yl}amino)-1H-pyrazole-4-carboxamide], the IC50 falls from 121 nM to 3 nM (40-fold).

COCC(C)(C)N[C@H]1CCC(n2cc(C(N)=O)c(Nc3ccccc3)n2)[C@@H](C#N)C1 (single isomer, unassigned) [Example 28-231, 1-{(1S,2S,4S or 1R,2R,4R)-2-cyano-4-[(2-methoxy-1,1-dimethylethyl)amino]cyclo-hexyl}-3-(phenylamino)-1H-pyrazole-4-carboxamide] gave an IC50 of 170 nM.
